From article PMC7504216 (Molecules, 2020)

Chains of the proteins cited; added tags and fusions are not shown. Residues count along the entry.
UniProt O42275, 24-633: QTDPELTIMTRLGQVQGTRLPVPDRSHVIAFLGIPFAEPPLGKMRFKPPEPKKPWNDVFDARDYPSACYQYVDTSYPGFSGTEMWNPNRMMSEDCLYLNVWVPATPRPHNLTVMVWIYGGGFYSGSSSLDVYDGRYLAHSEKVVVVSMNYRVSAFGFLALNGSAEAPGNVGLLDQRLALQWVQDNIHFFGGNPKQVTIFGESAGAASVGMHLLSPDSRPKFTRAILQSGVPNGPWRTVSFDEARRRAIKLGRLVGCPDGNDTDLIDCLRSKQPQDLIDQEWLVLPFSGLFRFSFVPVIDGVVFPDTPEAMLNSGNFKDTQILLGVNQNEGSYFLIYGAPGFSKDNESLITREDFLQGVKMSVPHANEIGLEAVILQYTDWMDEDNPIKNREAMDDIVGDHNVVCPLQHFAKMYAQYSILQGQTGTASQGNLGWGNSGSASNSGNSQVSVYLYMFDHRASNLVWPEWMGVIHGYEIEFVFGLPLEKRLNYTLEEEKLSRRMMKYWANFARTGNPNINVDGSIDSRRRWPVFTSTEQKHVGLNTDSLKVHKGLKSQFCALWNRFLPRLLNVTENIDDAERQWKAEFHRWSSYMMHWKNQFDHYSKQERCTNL
UniProt P21397, whole entry: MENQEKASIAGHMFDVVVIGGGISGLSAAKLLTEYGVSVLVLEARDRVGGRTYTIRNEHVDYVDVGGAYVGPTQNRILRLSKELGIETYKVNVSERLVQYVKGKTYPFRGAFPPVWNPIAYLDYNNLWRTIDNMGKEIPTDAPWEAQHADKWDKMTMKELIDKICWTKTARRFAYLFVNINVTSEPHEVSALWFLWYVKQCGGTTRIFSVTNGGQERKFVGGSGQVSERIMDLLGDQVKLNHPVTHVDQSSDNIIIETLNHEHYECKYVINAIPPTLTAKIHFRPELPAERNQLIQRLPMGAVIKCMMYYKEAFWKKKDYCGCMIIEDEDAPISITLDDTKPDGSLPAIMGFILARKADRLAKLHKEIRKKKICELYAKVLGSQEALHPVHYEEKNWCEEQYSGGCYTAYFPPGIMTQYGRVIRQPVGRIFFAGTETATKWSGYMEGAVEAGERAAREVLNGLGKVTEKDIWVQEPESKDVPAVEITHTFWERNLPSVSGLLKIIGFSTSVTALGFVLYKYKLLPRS
UniProt P81908, whole entry: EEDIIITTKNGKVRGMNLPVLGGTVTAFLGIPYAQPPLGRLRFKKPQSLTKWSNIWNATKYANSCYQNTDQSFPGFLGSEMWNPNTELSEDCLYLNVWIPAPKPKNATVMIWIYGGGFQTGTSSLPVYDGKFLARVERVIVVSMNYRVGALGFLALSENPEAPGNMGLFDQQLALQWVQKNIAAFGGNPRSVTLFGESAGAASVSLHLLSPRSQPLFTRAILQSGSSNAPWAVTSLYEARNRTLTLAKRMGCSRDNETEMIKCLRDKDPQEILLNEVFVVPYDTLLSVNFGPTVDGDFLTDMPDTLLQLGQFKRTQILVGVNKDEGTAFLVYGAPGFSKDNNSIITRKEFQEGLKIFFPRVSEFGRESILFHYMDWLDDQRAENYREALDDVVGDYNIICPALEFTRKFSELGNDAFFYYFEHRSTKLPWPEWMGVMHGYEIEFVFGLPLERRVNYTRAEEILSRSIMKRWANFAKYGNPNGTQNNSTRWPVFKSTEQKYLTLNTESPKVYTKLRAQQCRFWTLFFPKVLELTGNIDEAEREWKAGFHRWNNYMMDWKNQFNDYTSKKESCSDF
UniProt P27338, whole entry: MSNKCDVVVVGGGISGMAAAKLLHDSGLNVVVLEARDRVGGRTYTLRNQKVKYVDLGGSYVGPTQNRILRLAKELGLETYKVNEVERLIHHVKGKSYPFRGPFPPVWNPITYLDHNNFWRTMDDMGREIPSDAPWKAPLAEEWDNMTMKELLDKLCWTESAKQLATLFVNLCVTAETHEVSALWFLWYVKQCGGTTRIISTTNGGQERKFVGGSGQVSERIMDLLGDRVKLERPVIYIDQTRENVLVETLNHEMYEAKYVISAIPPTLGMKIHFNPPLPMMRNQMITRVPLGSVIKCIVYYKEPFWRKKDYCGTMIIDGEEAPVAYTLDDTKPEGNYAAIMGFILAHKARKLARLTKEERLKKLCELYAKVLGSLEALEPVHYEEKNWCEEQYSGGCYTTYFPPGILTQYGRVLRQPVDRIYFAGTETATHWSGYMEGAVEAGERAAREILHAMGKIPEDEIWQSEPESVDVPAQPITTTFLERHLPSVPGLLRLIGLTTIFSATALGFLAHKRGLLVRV

Assays:
[1] = target: T1, AChE from Electrophorus electricus (Electrophorus electricus, UniProt O42275); assay: AChE inhibition assay (Ellman, ATCI); format: biochemical; conditions: read-out: IC50 (µM) AChE; mean ± SE, triplicate
T1 construct: purchased Sigma-Aldrich

[2] = target: T2, recombinant human MAO-A (Homo sapiens, UniProt P21397); format: biochemical; conditions: read-out: IC50 (µM) MAO-A; mean ± SE, triplicate
T2 construct: purchased Sigma-Aldrich

[3] = target: BChE from equine serum (Equus caballus, UniProt P81908); assay: BChE inhibition assay (Ellman, BTCI) and kinetics; conditions: read-out: IC50 (µM) BChE; mean ± SE, triplicate
[4] = target: recombinant human MAO-B (Homo sapiens, UniProt P27338); format: biochemical; set-up: purchased Sigma-Aldrich; conditions: read-out: IC50 (µM) MAO-B; mean ± SE, triplicate

Substance | IC50 [1] [µM] | IC50 [2] [µM] | IC50 [3] [µM] | IC50 [4] [µM]
liquiritin apioside | 36.7 ± 1.42 | > 40 | > 40 | > 40
isoliquiritin apioside | – | > 40 | – | > 40
